Values of other authors, collected in patent publication US20080000473A1, “pH-Based Methods and Devices for Preventing Hemagglutinin Cell Membrane Fusion” (published 2008).

How the values were obtained:
[1] = system: patients exposed to chlorine
[2] = system: cats; conditions: 50 μL of 0.2 N instilled into the trachea

Compound	symptomatic relief ([1]; patients exposed to chlorine, nebulized)	clinical deterioration after nebulized use ([1]; patients with chlorine gas inhalation, retrospective review)	increase in airway resistance [2] [%]
sodium bicarbonate	safely provide symptomatic relief	No patients in the study deteriorated clinically	
Cl			420
